# Experimental data reported in patent US12186294B2, “Modulators of prostate-specific g-protein receptor (PSGR/OR51E2) and methods of using same” (Duke University, priority 2016, dated 2025).
# Molecular target: T1, OR51E2 (Homo sapiens, UniProt Q9H255)
# T1 construct: expressed in transfected cells; host or cells: Hana3A cells (modified human embryonic kidney cells)
# T1 sequence (Q9H255 1-320): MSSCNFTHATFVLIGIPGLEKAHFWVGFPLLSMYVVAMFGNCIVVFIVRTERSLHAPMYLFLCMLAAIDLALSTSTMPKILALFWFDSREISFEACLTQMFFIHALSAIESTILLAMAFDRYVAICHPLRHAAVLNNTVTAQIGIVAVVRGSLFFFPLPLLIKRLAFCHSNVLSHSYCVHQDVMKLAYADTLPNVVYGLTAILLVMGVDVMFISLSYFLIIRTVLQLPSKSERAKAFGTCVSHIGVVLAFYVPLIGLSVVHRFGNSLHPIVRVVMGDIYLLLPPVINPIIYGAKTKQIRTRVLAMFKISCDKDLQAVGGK
# Assay: in vitro luciferase assay (CRE-Luc) in Hana3A cells transfected with OR51E2
# Type: cell-based
# Conditions: compared to the 1 mM PA response
# Protocol: Hana3A cells (modified human embryonic kidney cells) were cultured in 96 well plates in M10PSF medium. LNCaP human prostate cancer cells were cultured in both RPMI medium and androgen deprived RPMI medium. Hana3A cells were transfected with CRE-Luc (CREB-dependent luciferase (Firefly)) and SV40-RL promoter plasmids, and pCI and OR51E2 plasmids. […] Upon ligand binding, an increase in cAMP drives the expression of Firefly luciferase. Increase in luminescence signal was measured with a luminometer and Optima Data Analysis software. The luminescent signal is directly proportional to receptor activation. A general schematic of a luciferase assay is shown in FIG. 5 and a schematic of the assay used in this Example is shown in FIG. 6.
# The top 56 compounds from the VLS list were tested using the in vitro expression and luciferase assay. […] The biologically relevant concentrations of each metabolite were individually determined based on available data in the literature. If no data were available, compounds were tested in the range of 1 nM-100 μM. Responses were normalized to the response with 1 mM propionic acid (PA), a previously identified agonist, and also to a response with no-control.
row,Compound,Efficacy
1,Nc1nc2nc(O)[nH]c2c(=O)[nH]1 [8-Hydroxyguanine],0.570
2,N[C@H](CO)Cc1c[nH]cn1 [L-Histidinol],0.578
3,O=C(O)[C@@H](O)CO [L-Glyceric acid],0.898
